Results published in patent US20080152641A1, “Inhibitors of Siderophore Biosynthesis in Fungi” (Autria Wirtschaftsservice, priority 2004, published 2008).

Test system: ΔsidA/ΔftrACEA17
Assay: Growth of double mutant ΔsidA/ΔftrACEA17 on different iron sources
Assay type: cell-based, Aspergillus fumigatus
Conditions: 10 μM as the sole iron source
Description: 10^4 conidia of the respective strain were point-inoculated on AMM plates containing the respective iron source, and incubated for 48 h at 37° C. Blood agar was AMM containing 5% sheep blood.
To analyze the potential role of FtrA in iron uptake of A. fumigatus we deleted the encoding gene in ΔsidACEA17 by replacement with the hygromycin resistance (hph) marker (Punt (1987), loc. cit.).

ferritin: host iron compound tested as sole iron source
growth of ΔsidA/ΔftrACEA17 on host iron compound as sole iron source: failed to grow
